Data as given in ChEMBL document CHEMBL5385906, “Discovery of a Potent, Selective, and Orally Bioavailable Tool Compound for Probing the Role of Lysophosphatidic Acid Type 2 Receptor Antagonists in Fibrotic Disorders” (J Med Chem, 2023).
Values belong to the molecule of their own block, whether it stands above or below them.

What was measured:
[1] = Volume of distribution at steady state in C57BL/6J mouse at 30 mg/kg, po and 1.5 mg/kg, iv by LC-MS/MS analysis; format: ADME, organism-based; settings: in vivo
[2] = Free Cmax in C57BL/6J mouse plasma at 30 mg/kg, po and 1.5 mg/kg, iv by LC-MS/MS analysis; format: ADME, organism-based; settings: in vivo
[3] = Free AUC last in C57BL/6J mouse plasma at 30 mg/kg, po and 1.5 mg/kg, iv by LC-MS/MS analysis; format: ADME, organism-based; settings: in vivo
[4] = Time of last measurable concentration in C57BL/6J mouse plasma at 30 mg/kg, po and 1.5 mg/kg, iv by UPLC-MS/MS analysis; format: ADME, organism-based; settings: in vivo
[5] = Free Cmax in C57BL/6J mouse lungs at 30 mg/kg, po and 1.5 mg/kg, iv by LC-MS/MS analysis; format: ADME, organism-based, Lung; settings: in vivo
[6] = Free AUC last in C57BL/6J mouse lungs at 30 mg/kg, po and 1.5 mg/kg, iv by LC-MS/MS analysis; format: ADME, organism-based, Lung; settings: in vivo
[7] = Time of last measurable concentration in C57BL/6J mouse lungs at 30 mg/kg, po and 1.5 mg/kg, iv by UPLC-MS/MS analysis; format: ADME, organism-based, Lung; settings: in vivo
[8] = Apparent permeability across apical to basolateral side in human Caco-2 cells at 10 uM measured after 60 mins by LC-MS/MS analysis; format: ADME, cell-based; settings: caco-2, 1 h
[9] = Volume of distribution at steady state in C57BL/6J mouse at 30 mg/kg, po and 2 mg/kg, iv by LC-MS/MS analysis; format: ADME, organism-based; settings: in vivo
[10] = Free Cmax in C57BL/6J mouse plasma at 30 mg/kg, po and 2 mg/kg, iv by LC-MS/MS analysis; format: ADME, organism-based; settings: in vivo
[11] = Free AUC last in C57BL/6J mouse plasma at 30 mg/kg, po and 2 mg/kg, iv by LC-MS/MS analysis; format: ADME, organism-based; settings: in vivo
[12] = Time of last measurable concentration in C57BL/6J mouse plasma at 30 mg/kg, po and 2 mg/kg, iv by UPLC-MS/MS analysis; format: ADME, organism-based; settings: in vivo
[13] = Free Cmax in C57BL/6J mouse lungs at 30 mg/kg, po and 2 mg/kg, iv by LC-MS/MS analysis; format: ADME, organism-based, Lung; settings: in vivo
[14] = Free AUC last in C57BL/6J mouse lungs at 30 mg/kg, po and 2 mg/kg, iv by LC-MS/MS analysis; format: ADME, organism-based, Lung; settings: in vivo
[15] = Time of last measurable concentration in C57BL/6J mouse lungs at 30 mg/kg, po and 2 mg/kg, iv by UPLC-MS/MS analysis; format: ADME, organism-based, Lung; settings: in vivo
[16] = Intrinsic clearance in human liver microsomes at 0.5 uM in presence of NADPH regenerating system measured for 45 mins per mg protein by LC-MS/MS analysis; format: ADME, Microsome; settings: 0.75 h

- Vdss [1]: 0.28 L/kg
- fCmax [2]: 235 ng/mL
- fAUClast [3]: 1281 ng·h/mL
- Tlast [4]: 24 h
- fCmax [5]: 484 ng/mL
- fAUClast [6]: 4300 ng·h/mL
- Tlast [7]: 24 h
SMILES: COC(=O)Nc1nc(C)c(S(=O)(=O)N2CCN(C[C@H](C)Nc3ncnc4c(-c5ccc(F)c(CN(C)C)c5)cccc34)CC2)s1

- Papp [8]: Bld
SMILES: COC(=O)Nc1nc(C)c(S(=O)(=O)N2CCN(C[C@H](C)Nc3ncnc4c(C(=O)N(C)C)cccc34)CC2)s1

- Vdss [9]: 0.21 L/kg
- fCmax [10]: 90 ng/mL
- fAUClast [11]: 110 ng·h/mL
- Tlast [12]: 8 h
- fCmax [13]: 174 ng/mL
- fAUClast [14]: 240 ng·h/mL
- Tlast [15]: 8 h
SMILES: COC(=O)Nc1nc(C)c(S(=O)(=O)N2CCN(C[C@H](C)Nc3ncnc4c(-c5cccnc5)cccc34)CC2)s1

- CLH [16]: 390 µL/min
SMILES: Cc1nc(NC(C)CN2CCN(S(=O)(=O)c3ccc(Cl)c(Cl)c3)CC2)c2scc(C)c2n1 (stereo in doubt; 36b)
